Assay results as given in patent US8883824B2, “3-(4-aminophenyl)-2-furancarboxylic acid derivative and pharmaceutically acceptable salt thereof” (Sumitomo Dainippon Pharma Co., Ltd., priority 2009, dated 2014).

Tested on: ob/ob mice
Test: Combination use with DPPIV inhibitor sitagliptin, postprandial hyperglycemia in ob/ob mice
Format: in vivo
Settings: single use; single oral dose (Example 69 0.1 mg/kg; sitagliptin 5 mg/lm) one hour before liquid food
Method: B6.V-Lepob/J (ob/ob) mice and control B6.V-Lepob/J (?/+) mice (male, 6 to 7 weeks old, n=8, Charles River Japan) were used. […] One hour later, liquid food (ensure H, Abbott Japan, Co., Ltd., 1.5 kcal/mL) was orally administered. The blood sugar levels immediately before, and 15, 30, 60, and 90 minutes after administration of the liquid food were measured.

## N[C@@H](CC(=O)N1CCn2c(nnc2C(F)(F)F)C1)Cc1cc(F)c(F)cc1F [sitagliptin, reference compound]
  area under the blood concentration-time curve (blood sugar) after liquid food: normalized
  blood sugar increase 15 minutes after the administration of liquid food: could not normalize
